Biological target: Amine oxidase [flavin-containing] B (Homo sapiens, UniProt P27338)
Test: MAO Inhibition Assay
Method: IC50 values for the inhibition of MAO-A and MAO-B were determined using the recombinant human enzymes as enzyme sources, and kynuramine as non-selective MAO substrate. The concentrations of the MAO-generated 4-hydroxyquinoline were measured by fluorescence spectrophotometry (λex = 310; λem = 400 nm). The protocol for these experiments has been reported in detail in recent publications

Protein sequences, listed by entry. Tags and fused reporters are not part of them.
UniProt P27338, whole entry: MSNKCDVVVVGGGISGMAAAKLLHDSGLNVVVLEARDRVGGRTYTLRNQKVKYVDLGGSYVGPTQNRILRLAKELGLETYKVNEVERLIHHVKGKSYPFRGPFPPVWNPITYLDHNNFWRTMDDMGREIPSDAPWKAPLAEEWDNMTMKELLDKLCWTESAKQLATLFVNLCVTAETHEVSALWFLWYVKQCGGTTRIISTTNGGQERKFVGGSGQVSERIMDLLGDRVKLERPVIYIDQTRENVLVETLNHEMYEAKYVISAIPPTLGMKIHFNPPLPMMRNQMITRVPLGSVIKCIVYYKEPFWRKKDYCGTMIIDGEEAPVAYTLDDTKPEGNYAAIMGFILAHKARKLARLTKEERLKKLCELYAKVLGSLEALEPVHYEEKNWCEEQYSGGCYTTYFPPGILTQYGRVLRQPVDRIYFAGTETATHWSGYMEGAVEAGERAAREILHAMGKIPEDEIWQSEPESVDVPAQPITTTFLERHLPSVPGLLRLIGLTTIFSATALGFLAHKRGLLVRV

- IC50: 4.1 nM
SMILES: O=C1CCCc2ccc(OCc3ccc(Cl)cc3)cc21 [7-[(4-Chlorobenzyl)oxy]-3,4-dihydronaphthalen-1(2H)-one (4g)]

Reference: BindingDB's records for doi:10.1111/cbdd.12508 (North-West University, 2015)
